Results: US9884125B2, “Glucose-responsive insulin conjugates” (Merck Sharp & Dohme Corp., priority 2013, dated 2018)
pIC50: −log10 of the molar value.

Biological target: T1, Human macrophage mannose receptor 1 (MRC1) (Homo sapiens, UniProt P22897)
T1 sequence (P22897 19-1456): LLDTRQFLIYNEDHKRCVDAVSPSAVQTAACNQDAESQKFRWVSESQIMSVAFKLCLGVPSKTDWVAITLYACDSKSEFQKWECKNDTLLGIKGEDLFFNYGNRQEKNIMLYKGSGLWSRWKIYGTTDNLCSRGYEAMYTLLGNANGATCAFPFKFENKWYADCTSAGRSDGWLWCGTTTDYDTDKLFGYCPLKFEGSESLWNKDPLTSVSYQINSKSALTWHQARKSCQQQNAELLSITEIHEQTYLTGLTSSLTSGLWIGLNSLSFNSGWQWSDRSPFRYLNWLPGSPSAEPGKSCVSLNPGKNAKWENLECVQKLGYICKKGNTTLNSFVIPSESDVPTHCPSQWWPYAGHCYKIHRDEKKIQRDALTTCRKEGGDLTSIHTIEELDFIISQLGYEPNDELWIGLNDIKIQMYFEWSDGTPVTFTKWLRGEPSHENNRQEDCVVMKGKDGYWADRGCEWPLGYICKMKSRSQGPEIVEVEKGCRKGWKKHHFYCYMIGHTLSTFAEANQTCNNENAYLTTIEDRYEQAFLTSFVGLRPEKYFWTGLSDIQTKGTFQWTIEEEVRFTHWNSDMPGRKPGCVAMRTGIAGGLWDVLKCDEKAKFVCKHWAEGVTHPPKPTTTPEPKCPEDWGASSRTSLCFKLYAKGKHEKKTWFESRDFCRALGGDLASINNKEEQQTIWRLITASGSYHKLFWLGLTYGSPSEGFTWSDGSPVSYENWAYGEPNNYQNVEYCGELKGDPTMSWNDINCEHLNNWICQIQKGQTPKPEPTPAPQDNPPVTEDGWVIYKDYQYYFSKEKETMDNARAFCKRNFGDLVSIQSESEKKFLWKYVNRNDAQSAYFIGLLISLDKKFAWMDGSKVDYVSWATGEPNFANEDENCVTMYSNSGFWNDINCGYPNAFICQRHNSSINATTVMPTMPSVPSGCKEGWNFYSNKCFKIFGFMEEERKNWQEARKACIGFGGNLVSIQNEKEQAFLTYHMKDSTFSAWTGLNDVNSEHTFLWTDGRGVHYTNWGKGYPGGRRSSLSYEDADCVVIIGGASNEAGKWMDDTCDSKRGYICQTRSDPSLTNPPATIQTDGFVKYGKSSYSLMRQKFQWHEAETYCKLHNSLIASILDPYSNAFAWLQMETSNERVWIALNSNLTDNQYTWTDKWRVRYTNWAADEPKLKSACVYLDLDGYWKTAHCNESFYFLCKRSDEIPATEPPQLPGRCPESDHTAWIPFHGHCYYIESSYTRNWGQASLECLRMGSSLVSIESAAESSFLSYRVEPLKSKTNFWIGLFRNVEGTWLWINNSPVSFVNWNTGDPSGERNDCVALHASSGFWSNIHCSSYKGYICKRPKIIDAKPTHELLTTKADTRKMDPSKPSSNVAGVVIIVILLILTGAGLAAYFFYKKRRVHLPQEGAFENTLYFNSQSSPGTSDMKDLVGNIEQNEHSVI
Experiment: MRC1 competition binding assay (Eu-mannosylated-BSA), Method F: 96-well, manual liquid dispense
Conditions: read-out: MRC1 Binding IP (inflection point, corresponds to IC50)
Procedure: The competition binding assay for MRC1 utilized a ligand, mannosylated-BSA labeled with the DELFIA Eu-N1-ITC reagent, as reported in the literature. […] The antibody was incubated in the plate for 1 hr at room temperature with shaking. The plate was washed with wash buffer 3-5 times followed by addition of MRC1 (2 ng/μl final concentration) in 25 μl PBS containing 1% stabilizer BSA. The plate was incubated at room temperature with gentle shaking for 1 hr. The plate was washed three times with wash buffer. […]
Their in vitro biological activities towards insulin receptor (IR) were measured by either ligand competition assays or functional phosphorylation assays, as described above, labeled as following: Method A: IR phosphorylation assay based on 96-well with manual liquid dispense; Method B: IR phosphorylation assay based on 96-well with automated liquid dispense; Method C: IR phosphorylation assay based on 384-well with automated liquid dispense; Method D: IR binding assay method D; Method E: IR binding assay method E; Method F: MRC1 assay was performed in a 96-well plate with a manual liquid dispense; Method G: MRC1 assay was performed in a 96-well plate with an automated liquid dispense; Method H: MRC1 assay was performed in a 384-well plate with an automated dispense.

N^εB29-6-((((2-oxo-2-((α-D-mannopyranosyl-(1→3)-[α-D-mannopyranosyl-(1→6)]-α-D-mannopyranosyl)-2-oxyethyl)amino) (2-oxo-2-((α-L-fucopyranosyloxy)-2-oxoethyl)amino)ethyl)amino)acetamido)-6-oxohexanoyl Human Insulin [IOC-58]
pIC50: 8.10
